The numbers were not newly measured in patent publication US8575131B2, “Glucuronic acid-containing glucan, process for production of same, and use of same” (National University Corporation Kagoshima University, priority 2009, dated 2013), which cites them from elsewhere.

The conditions of this series: in vivo.

As to “PEGASYS: interferon α covalently bound to a PEG chain having a molecular weight of 40,000”, the half-life in blood result is listed as “enhanced dramatically”.
